Data: patent publication US7303915B2, “In vitro-differentiated retinal ganglion cells and method for producing same” (Wisconsin Alumni Research Foundation, priority 2005, dated 2007)

Test system: RGC-5 cells
Conditions: 1 μM for 24 hours, 100 μM BrdU for the final 2 hours; untreated control 69.5%

Structure (SMILES): CN[C@@H]1C[C@H]2O[C@@](C)([C@@H]1OC)n1c3ccccc3c3c4c(c5c6ccccc6n2c5c31)C(=O)NC4 [staurosporine]
- cells with BrdU incorporation: 2.2%
